This is an account of results in US20260275279A1, “THYROCYTES AND USES THEREOF” (LifeNet Health, priority 2023, published 2026).

For this data set, the system named is 3D thyrocyte cell culture. The settings on record: 1.0×10^−10 to 1.0×10^−4 M.

Take `Cn1cc[nH]c1=S` [methimazole, Methimazole]: the “toxicity of inhibitor concentrations to the cells” value was “not toxic”.
